The IC50 is the concentration that gives 50% inhibition.

Protein sequences, listed by entry. Tags and fused reporters are not part of them. Residues count along the entry.
UniProt O00763, 27-2458 limits assumed: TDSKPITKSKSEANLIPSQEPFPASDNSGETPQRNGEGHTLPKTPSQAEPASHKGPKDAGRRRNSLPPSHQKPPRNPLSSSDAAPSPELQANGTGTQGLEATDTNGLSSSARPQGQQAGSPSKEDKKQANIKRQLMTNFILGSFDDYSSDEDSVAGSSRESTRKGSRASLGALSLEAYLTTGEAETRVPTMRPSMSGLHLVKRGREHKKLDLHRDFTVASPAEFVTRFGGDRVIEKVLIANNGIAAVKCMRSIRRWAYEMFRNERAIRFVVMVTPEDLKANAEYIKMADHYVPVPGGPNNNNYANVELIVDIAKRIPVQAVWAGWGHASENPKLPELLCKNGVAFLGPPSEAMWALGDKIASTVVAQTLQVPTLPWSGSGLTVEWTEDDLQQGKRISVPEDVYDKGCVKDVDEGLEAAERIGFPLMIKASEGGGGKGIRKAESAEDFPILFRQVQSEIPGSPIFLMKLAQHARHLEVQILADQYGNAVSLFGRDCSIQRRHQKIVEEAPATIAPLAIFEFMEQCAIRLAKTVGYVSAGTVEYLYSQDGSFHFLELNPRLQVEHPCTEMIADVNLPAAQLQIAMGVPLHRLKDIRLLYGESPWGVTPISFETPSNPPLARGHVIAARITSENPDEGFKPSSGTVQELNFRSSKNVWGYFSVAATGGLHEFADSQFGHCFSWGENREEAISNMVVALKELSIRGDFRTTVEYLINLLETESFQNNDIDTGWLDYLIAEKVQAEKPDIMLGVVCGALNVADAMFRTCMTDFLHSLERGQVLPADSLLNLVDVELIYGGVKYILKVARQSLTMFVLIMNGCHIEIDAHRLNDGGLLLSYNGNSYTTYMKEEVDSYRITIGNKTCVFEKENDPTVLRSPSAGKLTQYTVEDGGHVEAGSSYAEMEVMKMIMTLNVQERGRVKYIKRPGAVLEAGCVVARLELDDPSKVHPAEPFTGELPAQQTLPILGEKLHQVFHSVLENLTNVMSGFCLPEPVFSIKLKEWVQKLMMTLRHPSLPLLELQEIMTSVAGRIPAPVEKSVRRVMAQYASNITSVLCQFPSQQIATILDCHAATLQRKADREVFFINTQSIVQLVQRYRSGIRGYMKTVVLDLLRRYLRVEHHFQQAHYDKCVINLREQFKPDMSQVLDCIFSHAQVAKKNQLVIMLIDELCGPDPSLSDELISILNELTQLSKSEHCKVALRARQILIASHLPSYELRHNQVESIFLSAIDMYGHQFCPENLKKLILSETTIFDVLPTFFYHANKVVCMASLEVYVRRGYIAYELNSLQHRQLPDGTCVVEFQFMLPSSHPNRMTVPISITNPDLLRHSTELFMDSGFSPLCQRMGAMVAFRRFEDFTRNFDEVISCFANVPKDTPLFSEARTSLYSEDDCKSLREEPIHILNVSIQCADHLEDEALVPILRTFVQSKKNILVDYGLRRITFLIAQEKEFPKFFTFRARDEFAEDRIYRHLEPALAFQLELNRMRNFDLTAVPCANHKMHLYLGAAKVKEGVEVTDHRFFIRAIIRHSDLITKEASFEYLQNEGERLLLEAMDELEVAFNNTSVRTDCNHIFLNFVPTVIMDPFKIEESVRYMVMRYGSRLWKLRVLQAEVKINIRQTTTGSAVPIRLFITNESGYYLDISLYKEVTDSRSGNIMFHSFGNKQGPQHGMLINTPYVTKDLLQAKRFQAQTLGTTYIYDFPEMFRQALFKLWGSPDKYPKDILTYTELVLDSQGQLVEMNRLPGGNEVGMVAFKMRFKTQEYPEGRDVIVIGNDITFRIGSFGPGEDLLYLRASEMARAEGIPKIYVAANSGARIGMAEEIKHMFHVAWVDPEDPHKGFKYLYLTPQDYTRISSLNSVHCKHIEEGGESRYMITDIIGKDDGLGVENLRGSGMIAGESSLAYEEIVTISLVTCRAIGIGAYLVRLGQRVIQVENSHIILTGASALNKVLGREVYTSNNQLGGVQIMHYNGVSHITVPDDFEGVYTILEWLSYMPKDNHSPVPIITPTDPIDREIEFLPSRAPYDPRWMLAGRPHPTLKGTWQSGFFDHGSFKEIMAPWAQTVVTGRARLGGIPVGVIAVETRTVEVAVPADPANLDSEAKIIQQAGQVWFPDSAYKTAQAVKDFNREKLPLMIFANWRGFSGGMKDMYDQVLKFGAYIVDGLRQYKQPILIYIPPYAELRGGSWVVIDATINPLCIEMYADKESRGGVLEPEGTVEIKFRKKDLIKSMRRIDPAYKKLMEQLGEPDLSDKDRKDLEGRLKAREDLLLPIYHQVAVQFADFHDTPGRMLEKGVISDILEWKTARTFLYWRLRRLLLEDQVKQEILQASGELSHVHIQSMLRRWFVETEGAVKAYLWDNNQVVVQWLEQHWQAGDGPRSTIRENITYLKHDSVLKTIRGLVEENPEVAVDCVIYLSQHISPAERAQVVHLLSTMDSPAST
UniProt O00763, 39-2458 limits assumed: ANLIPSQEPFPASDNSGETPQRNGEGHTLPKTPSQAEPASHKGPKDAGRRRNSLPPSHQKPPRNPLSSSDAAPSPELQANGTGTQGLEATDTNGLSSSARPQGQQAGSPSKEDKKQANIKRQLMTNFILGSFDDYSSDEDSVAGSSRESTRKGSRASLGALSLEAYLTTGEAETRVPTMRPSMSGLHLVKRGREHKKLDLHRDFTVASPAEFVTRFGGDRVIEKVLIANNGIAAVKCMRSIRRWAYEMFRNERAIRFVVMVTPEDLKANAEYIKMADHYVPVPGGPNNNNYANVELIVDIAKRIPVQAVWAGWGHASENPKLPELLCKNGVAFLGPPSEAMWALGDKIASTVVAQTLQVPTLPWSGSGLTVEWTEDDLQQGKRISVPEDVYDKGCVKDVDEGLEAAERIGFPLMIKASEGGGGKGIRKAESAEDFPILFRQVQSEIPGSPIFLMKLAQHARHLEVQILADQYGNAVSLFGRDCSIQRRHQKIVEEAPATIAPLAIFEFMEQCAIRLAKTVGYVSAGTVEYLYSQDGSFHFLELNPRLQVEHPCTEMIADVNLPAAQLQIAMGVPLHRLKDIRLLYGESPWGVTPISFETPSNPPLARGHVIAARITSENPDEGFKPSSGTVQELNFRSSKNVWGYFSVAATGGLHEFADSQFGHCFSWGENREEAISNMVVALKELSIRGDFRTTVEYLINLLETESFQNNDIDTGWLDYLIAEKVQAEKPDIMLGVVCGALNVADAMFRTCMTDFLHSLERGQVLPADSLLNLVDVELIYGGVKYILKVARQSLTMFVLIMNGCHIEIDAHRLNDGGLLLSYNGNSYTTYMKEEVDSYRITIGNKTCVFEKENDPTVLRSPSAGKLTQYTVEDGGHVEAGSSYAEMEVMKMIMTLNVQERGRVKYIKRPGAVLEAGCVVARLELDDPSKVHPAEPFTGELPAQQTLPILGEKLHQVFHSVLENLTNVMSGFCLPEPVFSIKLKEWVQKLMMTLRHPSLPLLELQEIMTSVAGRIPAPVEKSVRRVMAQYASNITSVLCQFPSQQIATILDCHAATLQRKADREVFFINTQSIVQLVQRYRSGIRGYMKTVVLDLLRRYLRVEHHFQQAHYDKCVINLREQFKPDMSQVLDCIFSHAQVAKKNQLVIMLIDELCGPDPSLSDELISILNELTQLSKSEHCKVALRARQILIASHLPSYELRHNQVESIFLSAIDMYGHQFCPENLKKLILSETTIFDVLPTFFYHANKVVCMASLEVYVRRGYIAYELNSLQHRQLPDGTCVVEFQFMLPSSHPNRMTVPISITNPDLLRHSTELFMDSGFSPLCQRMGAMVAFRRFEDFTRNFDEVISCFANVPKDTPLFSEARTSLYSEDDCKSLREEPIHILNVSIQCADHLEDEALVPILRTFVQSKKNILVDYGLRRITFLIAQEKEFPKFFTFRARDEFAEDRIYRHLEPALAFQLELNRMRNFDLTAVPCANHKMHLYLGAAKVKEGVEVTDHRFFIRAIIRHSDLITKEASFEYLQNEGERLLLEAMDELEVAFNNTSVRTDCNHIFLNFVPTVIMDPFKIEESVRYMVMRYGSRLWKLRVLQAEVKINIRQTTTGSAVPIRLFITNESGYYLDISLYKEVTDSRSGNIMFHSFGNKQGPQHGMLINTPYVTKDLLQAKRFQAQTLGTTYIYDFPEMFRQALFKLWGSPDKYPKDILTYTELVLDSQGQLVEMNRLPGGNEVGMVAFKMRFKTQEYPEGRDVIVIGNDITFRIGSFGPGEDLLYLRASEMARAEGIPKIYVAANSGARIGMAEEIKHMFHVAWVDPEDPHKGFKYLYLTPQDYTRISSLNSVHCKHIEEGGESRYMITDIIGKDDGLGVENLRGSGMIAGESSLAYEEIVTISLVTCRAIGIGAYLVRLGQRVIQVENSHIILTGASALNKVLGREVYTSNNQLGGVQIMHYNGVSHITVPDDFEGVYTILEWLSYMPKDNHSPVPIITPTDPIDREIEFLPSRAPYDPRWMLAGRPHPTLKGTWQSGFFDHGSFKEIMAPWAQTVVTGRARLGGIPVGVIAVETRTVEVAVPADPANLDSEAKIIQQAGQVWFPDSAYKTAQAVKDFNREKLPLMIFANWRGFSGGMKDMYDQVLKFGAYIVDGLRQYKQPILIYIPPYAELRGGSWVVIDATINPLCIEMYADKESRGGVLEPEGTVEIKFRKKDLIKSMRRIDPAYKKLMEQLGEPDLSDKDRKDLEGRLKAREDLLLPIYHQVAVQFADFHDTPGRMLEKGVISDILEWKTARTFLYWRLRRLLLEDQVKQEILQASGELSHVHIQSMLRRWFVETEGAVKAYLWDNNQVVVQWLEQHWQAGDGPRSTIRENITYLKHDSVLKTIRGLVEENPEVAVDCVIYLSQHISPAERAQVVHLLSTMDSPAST

One experiment deals with recombinant human ACC1 (Homo sapiens, UniProt Q13085). Description: Human ACC1 enzyme assay, Assay A1 (HTRF ADP immunoassay).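 Further: ADP generated by the enzyme quantified via competitive time-resolved FRET, read as europium cryptate to d2 energy transfer after 1 h at 22 °C with labelled ADP tracer and anti-ADP antibody.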 The settings on record: read-out: ACC 1 (=A1) IC50. For orientation: Time-resolved FRET reads energy transfer from a long-lived donor to a nearby acceptor.
Experiment [1] addresses human ACC2 (acetyl-coenzyme A carboxylase 2) (Homo sapiens, UniProt O00763).
In experiment [2] the target is human ACC1 (acetyl-coenzyme A carboxylase alpha transcript variant 1) (Homo sapiens, UniProt Q13085). The experiment is described as follows: Human ACC1 enzyme assay, Assay B1 (ADP-Glo). The experiment is classed as biochemical. Conditions: read-out: ACC 1 (=B1) IC50. Background: ADP-Glo turns the ADP formed in a reaction into a luminescent signal.
The test system of another experiment is MCF7. The experiment is described as follows: Cell proliferation assay (CellTiter-Glo, 96 h), MCF7. Conditions: read-out: MCF7 IC50; Table 7; 96-hour incubation. The protocol: In accordance with the invention, the substances were tested in cell-based assays for the ability of the substances of inhibiting tumour cell proliferation after a 96-hour incubation with the substance. Cell viability was tested using the CellTiter-Glo® luminescent cell viability assay (Promega). The cells were sown at a density of 2000-5000 cells/well (depending on the cell line) in 100 μl growth medium on 96-well microtitre plates. For each cell line examined, cells were sown on a separate plate to determine the luminescence at t=0 hours and t=96 hours. After overnight incubation at 37° C., the luminescence values for the t=0 samples were determined. The dose plates for the t=96 hours points in time were treated with substances diluted with growth medium. The cells were then incubated at 37° C. for 96 hours, and the luminescence values for the t=96 hours sample were then determined. For data analysis, the t=0 values were subtracted from the t=96 hour values for treated and untreated samples. The differences in luminescence in percent between substance-treated samples and control values were used to determine the growth inhibition in percent.
The substances were tested in the following cell lines which represent the stated indications in an exemplary manner: […]
On the technique in general: In ATP-based viability assays light output follows the ATP content of the culture.

Experiment [3] has as its target acetyl-CoA carboxylase 2 (ACC2) (Homo sapiens, UniProt O00763). The experiment is described as follows: Human ACC2 enzyme assay, Assay A2 (HTRF ADP immunoassay).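 Further: ADP generated by ACC2 quantified via competitive time-resolved FRET between europium cryptate anti-ADP antibody and d2-tagged ADP, enzyme kept in linear range near 0.6 ng/µl.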 The settings on record: read-out: ACC 2 (=A2) IC50.

Some results are limits rather than exact numbers.

As to `CO[C@H]1CC[C@]2(CC1)NC(=O)C(c1cc(-c3ccc(F)cc3Cl)ccc1C)=C2O`, the IC50 on recombinant human ACC1 is 406 nM; in experiment [1], 8530 nM; in experiment [2], 221 nM; with MCF7 it was 149 nM; in experiment [3] it was 4920 nM.

Consider `Cc1ccc(-c2ccc(Cl)cc2)cc1C1=C(O)C2(CCOC(C)C2)NC1=O` (centres unmarked), for which the IC50 in experiment [1] was > 20000 nM; in experiment [2], 643 nM; in the experiment with MCF7 it was 310 nM.

Source of the values: patent publication US20130040935A1, “CYCLIC KETO-ENOLS FOR THERAPY” (BAYER INTELLECTUAL PROPERTY GMBH, priority 2010, published 2013).
